# Results from PubChem BioAssay.
# Protein sequences, listed by entry. Tags and fused reporters are not part of them.
# UniProt Q61143, whole entry: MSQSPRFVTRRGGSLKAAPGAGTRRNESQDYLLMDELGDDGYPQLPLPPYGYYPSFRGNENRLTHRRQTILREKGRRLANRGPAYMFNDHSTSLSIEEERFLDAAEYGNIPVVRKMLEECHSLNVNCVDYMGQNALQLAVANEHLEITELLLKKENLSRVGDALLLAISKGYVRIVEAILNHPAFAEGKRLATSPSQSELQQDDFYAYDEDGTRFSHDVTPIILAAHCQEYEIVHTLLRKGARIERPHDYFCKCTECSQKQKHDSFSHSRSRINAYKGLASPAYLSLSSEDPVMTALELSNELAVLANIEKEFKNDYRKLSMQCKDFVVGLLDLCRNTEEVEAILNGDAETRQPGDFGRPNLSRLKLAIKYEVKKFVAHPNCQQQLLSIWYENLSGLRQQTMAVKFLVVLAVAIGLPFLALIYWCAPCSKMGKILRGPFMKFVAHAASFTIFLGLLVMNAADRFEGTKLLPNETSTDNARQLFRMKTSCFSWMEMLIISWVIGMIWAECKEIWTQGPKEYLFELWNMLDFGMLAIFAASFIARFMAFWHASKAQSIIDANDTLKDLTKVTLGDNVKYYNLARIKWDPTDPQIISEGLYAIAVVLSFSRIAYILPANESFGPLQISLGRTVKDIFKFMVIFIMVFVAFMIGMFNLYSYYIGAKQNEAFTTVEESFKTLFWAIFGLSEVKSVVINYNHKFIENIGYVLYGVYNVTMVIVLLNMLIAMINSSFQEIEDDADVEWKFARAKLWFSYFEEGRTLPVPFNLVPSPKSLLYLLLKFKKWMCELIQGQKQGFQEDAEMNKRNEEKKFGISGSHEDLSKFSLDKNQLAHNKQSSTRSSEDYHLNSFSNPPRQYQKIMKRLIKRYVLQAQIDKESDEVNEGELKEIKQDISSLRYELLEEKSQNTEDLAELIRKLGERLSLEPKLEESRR
# This is a selection; strong and weak results do not stand in their true shares. Some tests of the compounds listed are not included; inactive here does not mean inactive elsewhere. Activity calls are given as the source filed them.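 Rule for the calls, unless noted: active = membrane potential signal drops by more than 5 SD from the mean control signal, in both duplicate plates; inactive = the rest.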
# How the values were obtained:
# [1] = target: Short transient receptor potential channel 6 (Mus musculus) (UniProt Q61143); assay: inhibition of mouse TRPC6 channel, confirmation, selectivity assay for TRPC4 inhibitor project, cell-based, HEK293, membrane potential dye, duplicate (AID 434948;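 active = active in primary screen and both duplicates, each dropping signal beyond three positive-control SD with fluorescence still positive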); settings: HEK293 TRPC6, membrane potential dye fluorescence; at 10 µM; stimulated with maximal-effect acetylcholine
# Procedure, shortened: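 Reagent: acetylcholine at maximal (ECmax) concentration, added after compound; system: HEK293 cells expressing mouse TRPC6 channel; read-out basis: control-normalized integrated fluorescence ratio; replicates: duplicate testing; times: 45 min RT dye load, 110 s compound, 110 s agonist read; signal: membrane potential dye fluorescence, kinetic read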
# [2] = target: Short transient receptor potential channel 6 (Mus musculus) (UniProt Q61143); assay: TRPC6 potentiation by TRPC4 potentiator hits, confirmation, selectivity assay for TRPC4 potentiator project, HEK293 cells, membrane potential dye, duplicate (AID 434952;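 active = compound raising the membrane signal above positive-control mean plus 3 SD in both repeats, and a primary screen hit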); settings: HEK293 TRPC6, membrane potential dye fluorescence; at 10 µM; maximal acetylcholine added after compound
# [3] = calcium flux activation in mu-opioid HEK293 cells, confirmation, counter-screen for TRPC4 activator project, cell-based, HEK293 mu-opioid receptor line (AID 449723;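 active = hit in primary screen, with calcium signal over 5 SD above buffer well mean in both duplicates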;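 note: counter screen cells carry the mu-opioid receptor alone and lack TRPC4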); settings: Fluo-4 calcium fluorescence, at 10 µM
# [4] = calcium flux enhancement in mu-opioid HEK293 cells, confirmation, counter-screen for TRPC4 allosteric potentiator project, cell-based, HEK293 mu-opioid receptor line (AID 449724;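 active = calcium signal rise more than 3 SD above the low-dose agonist control mean, in both duplicate plates and the primary screen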;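 note: HEK293 cells carrying mu-opioid receptor only with no TRPC4 channel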); settings: Fluo-4 calcium flux, at 10 µM, compound added before EC20 DAMGO stimulus
# [5] = modulation of acetylcholine-evoked membrane potential, parental HEK293, confirmation, counter-screen for TRPC6 modulator project, cell-based, second counter-screen, membrane potential dye (AID 488926); settings: parental HEK293, membrane potential dye fluorescence; at 10 µM; stronger effect = higher value; after compound, maximal acetylcholine stimulation;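 note: plate controls were acetylcholine ECmax control wells for no effect and buffer only wells for full effect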
compound,measurement,setting,value
CN(C)c1ccc(C(=O)NCC2(N(C)C)CCCCC2)cc1,outcome,[1],inactive
same,outcome,[2],inactive
same,outcome,[3],inactive
same,outcome,[4],inactive
CCN(CC)CC(C)C(C)OC(=O)C(O)(c1ccccc1)c1ccccc1 (stereo unspecified),inhibition,[5],active: 112%
CN1[C@@H]2CC[C@H]1CC(OC(=O)C(O)(c1ccccc1)c1ccccc1)C2 (stereo partly specified),inhibition,[5],active: 104%
